Data as given in patent EP4843984A1, “TARGETING COMPOUND AND USE THEREOF” (dated 2026).

Protein sequences, listed by entry. Tags and fused reporters are not part of them. Residues count along the entry.
UniProt P06756, 31-992 limits assumed: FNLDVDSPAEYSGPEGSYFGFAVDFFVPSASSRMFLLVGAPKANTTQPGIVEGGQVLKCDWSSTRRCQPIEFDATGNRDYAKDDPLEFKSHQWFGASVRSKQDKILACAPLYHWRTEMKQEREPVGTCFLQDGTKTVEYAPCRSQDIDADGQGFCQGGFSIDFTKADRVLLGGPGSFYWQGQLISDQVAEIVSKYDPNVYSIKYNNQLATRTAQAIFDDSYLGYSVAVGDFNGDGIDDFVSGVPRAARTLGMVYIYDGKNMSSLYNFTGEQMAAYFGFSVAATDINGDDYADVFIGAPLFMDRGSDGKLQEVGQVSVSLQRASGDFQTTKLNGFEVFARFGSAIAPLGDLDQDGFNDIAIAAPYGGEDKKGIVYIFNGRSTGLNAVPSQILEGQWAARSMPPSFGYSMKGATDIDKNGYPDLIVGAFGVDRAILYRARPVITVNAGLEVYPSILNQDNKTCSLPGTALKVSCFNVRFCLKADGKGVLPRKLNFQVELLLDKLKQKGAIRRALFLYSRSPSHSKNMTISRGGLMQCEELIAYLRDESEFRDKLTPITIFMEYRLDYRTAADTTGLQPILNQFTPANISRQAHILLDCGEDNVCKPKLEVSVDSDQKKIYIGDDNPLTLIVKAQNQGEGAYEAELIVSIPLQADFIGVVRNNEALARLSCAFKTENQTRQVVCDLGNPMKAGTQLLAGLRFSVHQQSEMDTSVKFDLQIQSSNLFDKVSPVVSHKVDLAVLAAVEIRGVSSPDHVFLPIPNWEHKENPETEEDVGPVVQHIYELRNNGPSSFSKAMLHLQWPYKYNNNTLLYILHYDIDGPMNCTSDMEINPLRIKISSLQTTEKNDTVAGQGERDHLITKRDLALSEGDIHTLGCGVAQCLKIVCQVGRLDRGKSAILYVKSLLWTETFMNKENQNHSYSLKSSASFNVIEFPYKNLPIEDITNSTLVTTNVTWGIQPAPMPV
UniProt P18564, 22-707 limits assumed: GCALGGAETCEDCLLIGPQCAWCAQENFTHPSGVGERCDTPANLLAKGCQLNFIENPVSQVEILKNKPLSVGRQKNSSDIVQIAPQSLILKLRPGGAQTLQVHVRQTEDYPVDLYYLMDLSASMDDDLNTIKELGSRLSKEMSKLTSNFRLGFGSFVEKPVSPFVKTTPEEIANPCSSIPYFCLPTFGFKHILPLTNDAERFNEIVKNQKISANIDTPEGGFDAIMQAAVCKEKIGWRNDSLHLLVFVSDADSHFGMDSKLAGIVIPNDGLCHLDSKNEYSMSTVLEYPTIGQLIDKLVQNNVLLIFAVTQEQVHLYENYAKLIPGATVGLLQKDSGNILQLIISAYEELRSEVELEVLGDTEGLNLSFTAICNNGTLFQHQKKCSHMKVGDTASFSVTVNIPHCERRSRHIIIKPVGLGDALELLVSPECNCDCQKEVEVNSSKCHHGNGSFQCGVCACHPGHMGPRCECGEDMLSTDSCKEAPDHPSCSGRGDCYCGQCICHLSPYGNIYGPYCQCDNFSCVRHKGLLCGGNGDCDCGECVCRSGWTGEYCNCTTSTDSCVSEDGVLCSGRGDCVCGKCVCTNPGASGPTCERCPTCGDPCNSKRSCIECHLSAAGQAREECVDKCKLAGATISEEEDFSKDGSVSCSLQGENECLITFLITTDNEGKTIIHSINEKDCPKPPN

molecular target: integrin αvβ6 protein (Homo sapiens, UniProt P06756+P18564); assay: ELISA binding assay of αvβ6 ligand (competition with fibronectin); details: coated integrin αvβ6 protein, fibronectin as ligand, luminescence readout
Experimental: The integrin αvβ6 protein (source: Acro Biosystems) was diluted to 5 µg/mL with coating solution, and 25 µL of the protein was added to each well of a 384-well plate. The plate was centrifuged at 1,000 rpm for 1 minute and then left to stand overnight at 4°C. 100 µL of washing solution was added to each well and left to stand for 5 minutes. Then the plate was flicked dry and washed 3 times. 100 µL of blocking solution was added to each well. The plate was centrifuged at 1,000 rpm for 1 minute and then incubated at 25°C for 90 minutes. 100 µL of washing solution was added to each well and left to stand for 5 minutes. Then the plate was flicked dry and washed 3 times. 10 µL of the above compounds at different dilution concentrations was added to each well. The plate was centrifuged at 1,000 rpm for 1 minute and then incubated at 25°C for 10 minutes. 10 µL of fibronectin (source: R&D) was added to each well. The plate was centrifuged at 1,000 rpm for 1 minute and then incubated at 25°C for 60 minutes. 100 µL washing solution was added to each well and left to stand for 5 minutes. Then the plate was flicked dry and washed 3 times. 25 µL of biotinylated anti-fibronectin antibody (source: R&D) was added to each well. The plate was centrifuged at 1,000 rpm for 1 minute and then incubated at 25°C for 60 minutes. 100 µL washing solution was added to each well and left to stand for 5 minutes. Then the plate was flicked dry and washed 3 times. 25 µL of horseradish peroxidase-labeled streptavidin was added to each well. The plate was centrifuged at 1,000 rpm for 1 minute and then incubated at 25°C for 30 minutes. 100 µL of washing solution was added to each well and left to stand for 5 minutes. Then the plate was flicked dry and washed 4 times. 25 µL of ultrasensitive luminescent substrate solution was added to each well. The plate was centrifuged at 1000 rpm for 1 minute and then incubated at 25°C for 5 minutes. The luminescence values were read on a microplate reader. [Table 2]: Binding Activity of Integrin αvβ6 Ligands

First: Cn1nccc1-c1cccc([C@H](CC(=O)O)NC(=O)CNC(=O)CCCNc2ncc[nH]2)c1
Second: Cn1nccc1-c1cccc([C@H](CC(=O)O)NC(=O)CNC(=O)CCCNc2nc(C#N)c[nH]2)c1
The IC50 of the first is 2.1-fold lower: 2.11 nM for the first, 4.42 nM for the second. The first is the more potent here.

Work on `Cn1nccc1-c1cc([C@H](CC(=O)O)NC(=O)CNC(=O)CCCNc2nc(C#N)c[nH]2)ccc1OCCOCCOCCOCCOCCN=[N+]=[N-]` yielded an IC50 of 4.53 nM.
